Where “and” joins values, the source holds several entries; their conditions need not be identical. Equal values may be shown once. This is a selection; strong and weak results do not stand in their true shares. Some tests of the compounds listed are not included; inactive here does not mean inactive elsewhere. Results filed as inconclusive are left out. Calls of active or inactive are those of the source. Calls come from the whole dose curve; as a rule, active = well fitted inhibition curve with a large enough effect; inconclusive = small, poorly fitted or top-dose-only effect, or another doubt; inactive = no such curve, though single readings can be large or run the other way.
% is set by controls: 0 for no effect and ±100 for the full control effect.

The nature of the test: qHTS of GLP-1 Receptor Inverse Agonists: Cytotox Screen.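 Note: loss of luciferase light is scored as toxicity.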 Particulars: HEK293 cAMP-luciferase reporter cells, luminescence, 24 h; at 38.3 µM (top of the series). The source says: The overall goal of this project was to develop a novel assay for discovering small molecule ligands for class B1 G protein-coupled receptors (GPCRs). Very few agonists (or inverse agonists) with generally weak activity for this entire group of physiologically important receptors are known to date. To establish proof-of-principle that this critical bottleneck can be overcome with a suitable screening approach, our studies focused on the class B1 receptor for glucagon-like peptide-1 (GLP-1R), a potential therapeutic target for diabetes and neurodegenerative disease.
The assay was developed using a cell-based functional readout. Toward this goal, stably transfected HEK293 cell clones were established that co-express (i) a cAMP-responsive luciferase reporter gene, and (ii) constitutively active GLP-1R that upon ligand interaction inhibit (inverse agonists) the luciferase activity. In addition, two control cell lines were developed: (i) one that express only the cAMP-responsive reporter gene to enable initial exclusion of GLP-1R independent effects of candidate probes; and (ii) one with the reported gene cloned with another constitutively active orphan receptor GPR119 to enable exclusion of GLP-1R independent inhibitor effects of candidate inverse agonists.
To that end, this assay was optimized for 1536-well format and screened against the MLSMR. Then the same collection was run in this cytotoxicity assay where inhibition was the undesired outcome.
NIH Molecular Libraries Probe Production Network [MLPCN]
NIH Chemical Genomics Center [NCGC]
PI Name: Martin Beinborn, Tufts Medical Center
Six ul of cell suspension (200 cells/uL in DMEM + 10% Nu serum + 1% pen-strep) is dispensed in a white solid 1536-well plate. The plates are incubated for 12 hours at 37 deg C at 5% CO2 followed by addition of 23 nL compounds. After 24 hr incubation at 37 deg C and 5% CO2, 3 uL of luciferase assay detection reagent is added. A luminescence read is obtained on the PerkinElmer Viewlux after 12 min incubation at room temperature.
`CN(C)C1(CNC(=O)c2ccc(Br)cc2)CCCCC1`: the activity change, negative = inhibition was inactive: 0.77%.
In the case of `COc1cc(C(=O)NCC2(N(C)C)CCCCC2)c([N+](=O)[O-])cc1OC` it was inactive: 1.74%; in that of `COc1ccc(Cl)cc1C(=O)NCC1(N(C)C)CCCCC1`, inactive: 5.92%; in that of `COc1cccc(C(=O)NCC2(N3CCCCC3)CCCCC2)c1`, inactive: -10.1%.
For the compound `COc1ccc(C(=O)NCC2(N(C)C)CCCCC2)cc1Cl`, the activity change, negative = inhibition was inactive: 3.21%.
In the case of `O=C(NCC1(N2CCCCC2)CCCCC1)c1cccc(Cl)c1` it was inactive: -14.8%; in that of `COc1cccc(C(=O)NCC2(N3CCOCC3)CCCCC2)c1`, inactive: -10.6%; in that of `O=C(OC1CN2CCC1CC2)C(CO)(c1ccccc1)c1ccccc1` (stereo unspecified), inactive: -0.539%.
In the case of `CC(C)COc1ccc(C(=O)NCC2(N(C)C)CCCCC2)cc1` it was inactive: -9.78%; in that of `C=C(C)C#CC(O)(C(=O)OC1CCN(C)CC1)c1ccccc1` (stereo unspecified), inactive: -5.32%.
In the case of `COc1ccc(Br)c(C(=O)NCC2(N3CCCCC3)CCCCC2)c1` it was inactive: -8.56%; in that of `Cc1cccc(C(=O)NCC2(N(C)C)CCCCC2)c1`, inactive: -12.2%; in that of `COc1cc(C(=O)NCC2(N(C)C)CCCCC2)cc(OC)c1OC`, inactive: -0.371%.
`O=C(OCCN1CCCC1)C(O)(c1ccccc1)c1ccccc1`: the activity change, negative = inhibition is inactive: 1.73%.
With `CC(C)Oc1ccc(C(=O)NCC2(N(C)C)CCCCC2)cc1`, the activity change, negative = inhibition is inactive: 5.48% and inactive: 5.14%.
For `CN(C)c1cccc(C(=O)NCC2(N(C)C)CCCCC2)c1` the value was inactive: -0.505%; for `O=C(NCC1(N2CCCCC2)CCCCC1)c1cc([N+](=O)[O-])ccc1Cl`, inactive: -26%.
Regarding `CN1[C@@H]2CC[C@H]1CC(OC(=O)C(O)(c1ccccc1)c1ccccc1)C2` (stereo partly specified), the activity change, negative = inhibition was inactive: -5.84%.
In the case of `COc1cc(SC)ccc1C(=O)NCC1(N(C)C)CCCCC1` it was inactive: 5.36%.
For `CN(C)C1(CNC(=O)c2cccc(Cl)c2)CCCCC1`, the activity change, negative = inhibition was inactive: 0.064%.
In the case of `CCN(CC)CC(C)C(C)OC(=O)C(O)(c1ccccc1)c1ccccc1` (stereo unspecified), the activity change, negative = inhibition was inactive: -1.23%.
For `CC(C)N1C(=O)CC2(CCN(CCOC(=O)C(O)(c3ccccc3)c3ccccc3)CC2)C1=O` the value was inactive: -1.85%.
In the case of `Cc1ccc(C(=O)NCC2(N3CCCCC3)CCCCC2)cc1` it was inactive: 6.5%.
In the case of `CN(C)C1(CNC(=O)c2ccccc2F)CCCCC1` it was inactive: 8.59%.
In the case of `CN(C)C1CCCC1OC(=O)C(O)(c1ccccc1)c1ccccc1` (stereo unspecified), the activity change, negative = inhibition was inactive: -18.1%.
For the compound `CN(C)c1ccc(C(=O)NCC2(N(C)C)CCCCC2)cc1`, the activity change, negative = inhibition is inactive: -0.634%.
In the case of `CN(C)C1(CNC(=O)c2ccccc2[N+](=O)[O-])CCCCC1` it was inactive: 1.77%; in that of `Cc1ccccc1C(=O)NCC1(N2CCCCC2)CCCCC1`, inactive: -3.65%.
As for `CCCCOc1ccccc1C(=O)NCC1(N(C)C)CCCCC1`, the activity change, negative = inhibition is inactive: 2.11%.
For `O=C(NCC1(N2CCCCC2)CCCCC1)c1cc(F)c(F)cc1Cl` the value was inactive: -10.4%; for `C=CCN1CCN(CCOC(=O)C(O)(c2ccccc2)c2ccccc2)CC1`, inactive: 20.8%.
Regarding `CCOc1cccc(C(=O)NCC2(N(C)C)CCCCC2)c1`, the activity change, negative = inhibition was inactive: -20.2%.
In the case of `COc1ccc(C(=O)NCC2(N(C)C)CCCCC2)cc1` it was inactive: 3.54%; in that of `O=C(NCC1(N2CCCCC2)CCCCC1)c1cccc(Br)c1`, inactive: -4.98%; in that of `Cc1cc(C(=O)NCC2(N3CCCCC3)CCCCC2)ccc1[N+](=O)[O-]`, inactive: 4.2%.
On to `CCN1CCCC(OC(=O)C2(O)c3ccccc3C=Cc3ccccc32)C1` (stereo unspecified), for which the activity change, negative = inhibition is inactive: 8.44%.

Source of the values: PubChem BioAssay AID624418 (National Center for Advancing Translational Sciences (NCATS), 2012).
